The source of these data is patent US20170052177A1, “COMPETITION ASSAY” (PharmaDiagnostics NV, priority 2014, published 2017).

Amino acid sequences for entries named in this document (tags omitted).
UniProt Q00987, whole entry, species assumed: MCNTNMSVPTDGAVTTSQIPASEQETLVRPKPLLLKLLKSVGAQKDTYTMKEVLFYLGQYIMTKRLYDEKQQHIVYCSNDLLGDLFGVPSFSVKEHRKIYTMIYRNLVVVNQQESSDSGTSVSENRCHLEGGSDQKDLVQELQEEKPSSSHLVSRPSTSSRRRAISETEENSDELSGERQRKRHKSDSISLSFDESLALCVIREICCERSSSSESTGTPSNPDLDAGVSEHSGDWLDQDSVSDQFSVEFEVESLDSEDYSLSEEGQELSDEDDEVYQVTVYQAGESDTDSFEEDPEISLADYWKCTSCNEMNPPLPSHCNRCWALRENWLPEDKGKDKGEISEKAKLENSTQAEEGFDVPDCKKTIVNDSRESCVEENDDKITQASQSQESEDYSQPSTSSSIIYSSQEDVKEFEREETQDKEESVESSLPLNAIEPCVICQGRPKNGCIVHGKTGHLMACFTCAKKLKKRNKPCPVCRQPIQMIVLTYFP

For this assay, the target named is MDM2 (Homo sapiens, UniProt Q00987). Put plainly: LSPR competition assay: MDM2 pre-incubated with nutlin-3 or p53, then p53-GNR conjugate. The class given is binding.

Consider `COc1ccc(C2=N[C@@H](c3ccc(Cl)cc3)[C@@H](c3ccc(Cl)cc3)N2C(=O)N2CCNC(=O)C2)c(OC(C)C)c1` [nutlin-3], for which, under “fixed MDM2, p53-GNR conjugate, increasing concentration of added compound (FIGS. 4A and 4B)”, the “ΔRU as a function of the added amount of nutlin-3 and p53” value is reported as “ΔRU decreases”. Moreover, the “relative affinity to MDM2” value (from concentration needed for significant reduction of ΔRU (FIGS. 4A and 4B)) is listed as “much higher affinity to MDM2 than p53”.
